Results: paper PMC4549712, “Inhibition of human GLUT1 and GLUT5 by plant carbohydrate products; insights into transport specificity” (Scientific Reports, 2015)
Substitutions are numbered along the chain they refer to. Several values for one entry are separate records, joined by “and”; a condition that tells them apart may be missing. Equal values may be shown once.

How the values were obtained:
GLUT5A396W = biological target: T1, GLUT5A396W (Homo sapiens, UniProt P22732, A396W); assay: entrance counter-flow transport assay, glucose transport by GLUT5A396W proteoliposomes; type: biochemical
T1 construct: Full length DNA was subcloned into pFastBac1 (Life Technologies) vector with a N-terminal hexahistidine tag; hexahistidine (thrombin-cleavable) (N, cleaved yes); made in house; host or cells: Sf21 insect cells (baculovirus, pFastBac1)
T1 sequence (P22732 1-501 A396W): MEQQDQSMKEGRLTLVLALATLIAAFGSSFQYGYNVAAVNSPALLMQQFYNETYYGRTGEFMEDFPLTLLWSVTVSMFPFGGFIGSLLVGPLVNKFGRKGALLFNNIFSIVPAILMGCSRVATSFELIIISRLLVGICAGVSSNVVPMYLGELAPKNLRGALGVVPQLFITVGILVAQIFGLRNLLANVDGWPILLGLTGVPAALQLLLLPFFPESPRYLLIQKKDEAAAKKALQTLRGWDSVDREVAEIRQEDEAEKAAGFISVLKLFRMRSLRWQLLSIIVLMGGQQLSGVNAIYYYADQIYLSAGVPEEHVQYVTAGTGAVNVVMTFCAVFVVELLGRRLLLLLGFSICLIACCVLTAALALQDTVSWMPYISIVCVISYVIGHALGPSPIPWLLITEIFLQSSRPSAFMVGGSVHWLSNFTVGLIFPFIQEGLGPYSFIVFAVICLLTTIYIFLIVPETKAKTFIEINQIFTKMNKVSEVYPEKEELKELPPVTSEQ

human GLUT5 = biological target: T2, human GLUT5 (Homo sapiens, UniProt P22732); assay: entrance counter-flow transport assay, GLUT5-mediated fructose transport in proteoliposomes; type: biochemical
T2 construct: Full length DNA was subcloned into pFastBac1 (Life Technologies) vector with a N-terminal hexahistidine tag; hexahistidine (thrombin-cleavable) (N, cleaved yes); made in house; host or cells: Sf21 insect cells (baculovirus, pFastBac1)
T2 sequence (P22732 1-501): T1 sequence (P22732 1-501 A396W) with W396A
Excerpt: Human GLUT1 and GLUT5 were expressed recombinantly in insect cell culture. The purified proteins were reconstituted into proteoliposomes. To measure the inhibition of GLUT1 or GLUT5 transport activity we used entrance counter-flow transport assay.
Proteoliposomes were generated according to the protocol from[30] with minor modifications. Liposomes were produced from a 95/5% (w/w) mix of soy phosphatidylcholine and cholesterol (Avanti Polar Lipids). Briefly, hexane-washed and vacuum-dried lipids were resuspended to 20 mg/ml in 100 mM KPi (pH 7.5), and then subjected to 11 freeze-and-thaw cycles in liquid nitrogen and room temperature water. The lipid mixture was extruded through a 0.1 μm polycarbonate filter. Prepared liposomes were destabilized with 4 mM Triton X-100 and mixed with purified protein in a 100:1 (w/w) ratio in 100 mM KPi (pH 7.5) 20% (v/v) glycerol, 200 mM (glucose or fructose). […]
To measure hexose transport, we utilized entrance counter-flow assay. […] The membrane filter was placed into a vial filled with BioSafe II scintillation liquid (Research Products International Corp.), and radioactivity was quantified with LS 6500 scintillation counter (Beckman). […] Data is presented as relative activity normalized to radioactivity of no inhibitor added as 100% and empty proteoliposomes as 0%. […]

[1] = parameters: method as in PMID 22133440; details: cited from earlier work
GLUT1W388A = biological target: T3, GLUT1W388A (Homo sapiens, UniProt P11166, W388A); assay: entrance counter-flow transport assay, glucose transport by GLUT1W388A proteoliposomes; type: biochemical
T3 construct: Full length DNA was subcloned into pFastBac1 (Life Technologies) vector with a N-terminal hexahistidine tag; hexahistidine (thrombin-cleavable) (N, cleaved yes); made in house; host or cells: Sf21 insect cells (baculovirus, pFastBac1)
T3 sequence (P11166 1-492 W388A): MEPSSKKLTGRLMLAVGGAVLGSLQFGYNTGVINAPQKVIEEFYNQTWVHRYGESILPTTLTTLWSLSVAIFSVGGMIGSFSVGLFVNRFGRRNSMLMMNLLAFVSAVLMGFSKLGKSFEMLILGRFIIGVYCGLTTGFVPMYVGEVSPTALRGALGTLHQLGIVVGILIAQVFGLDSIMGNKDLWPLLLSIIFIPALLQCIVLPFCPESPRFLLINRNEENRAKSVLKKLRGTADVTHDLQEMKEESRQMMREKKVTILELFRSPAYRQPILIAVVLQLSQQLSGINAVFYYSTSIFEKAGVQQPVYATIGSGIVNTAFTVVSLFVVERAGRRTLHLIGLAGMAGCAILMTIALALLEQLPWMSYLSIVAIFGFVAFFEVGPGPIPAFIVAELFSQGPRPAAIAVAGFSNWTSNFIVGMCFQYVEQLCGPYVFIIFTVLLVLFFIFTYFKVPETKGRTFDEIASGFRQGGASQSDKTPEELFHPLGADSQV

Compound | IC50 (GLUT5A396W) | IC50 (human GLUT5) | solubility in water [1] | IC50 (GLUT1W388A)
C=C1C[C@@]23CC[C@H]4[C@@](C)(CCC[C@@]4(C)C(=O)O[C@@H]4O[C@H](CO)[C@@H](O)[C@H](O)[C@H]4O)[C@@H]2CC[C@]1(O[C@@H]1O[C@H](CO)[C@@H](O)[C@H](O)[C@H]1O)C3 [Rub, Rubusoside] | 6.8 ± 0.4 mM | – | – | –
Astragalin-6-glucoside [Ast6G] | 3.7 ± 1.2 mM | 6.8 mM and ~6 mM | water soluble | 10.7 ± 2.5 mM
